The results in this text go back to patent publication US20220002435A1 (IMMUNOME, published 2022).

Test [1] addresses T1, human EPN1 expressed by human cell lines (human, UniProt Q9Y6I3 1-576).
T1 construct: Endogenous EPN1 of human tumour and normal cell lines, stained on live cells or on fixed and permeabilised cells, or immunoprecipitated; The cell lines were not engineered to express it; also called surface EPN1; huEPN1
T1 sequence: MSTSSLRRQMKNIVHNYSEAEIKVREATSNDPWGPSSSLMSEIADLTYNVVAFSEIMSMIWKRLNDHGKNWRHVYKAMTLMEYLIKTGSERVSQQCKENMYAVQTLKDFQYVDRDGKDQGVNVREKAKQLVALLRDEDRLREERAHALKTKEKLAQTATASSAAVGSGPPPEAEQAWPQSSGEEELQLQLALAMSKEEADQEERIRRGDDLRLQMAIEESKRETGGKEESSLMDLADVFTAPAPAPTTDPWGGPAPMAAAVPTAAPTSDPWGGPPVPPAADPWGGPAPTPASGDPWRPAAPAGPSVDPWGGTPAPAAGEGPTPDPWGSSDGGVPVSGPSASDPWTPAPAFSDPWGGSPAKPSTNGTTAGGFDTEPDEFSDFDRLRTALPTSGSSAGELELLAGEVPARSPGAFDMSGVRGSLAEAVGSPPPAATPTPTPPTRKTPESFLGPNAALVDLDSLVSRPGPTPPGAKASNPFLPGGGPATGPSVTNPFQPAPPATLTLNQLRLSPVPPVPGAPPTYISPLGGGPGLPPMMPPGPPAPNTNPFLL
Briefly: flow cytometry, 786o cells (human tumor line).

For test [2], the target named is T1, human EPN1 expressed by human cell lines. Briefly: flow cytometry, Huh7 cells (human tumor line).
Test [3] shares this target. Briefly: flow cytometry, LNCAP cells (human tumor line).
Test [4] deals with T2, recombinant EPN1 (Origene, cat #TP307099) (human, UniProt Q9Y6I3 1-576).
T2 construct: Bought protein; also called Epsin-1; Epsin 1
T2 sequence: T1 sequence
Briefly: SPR, IMM20059 captured at 450 RU on CM5/Protein A, EPN1 in solution, 1:1 model, 25° C., 1st test; 1st test. As to the method:
(§1) The strength of the interaction with recombinant EPN1 was further defined by surface plasmon resonance on a BIAcore2000 at 25° C. in standard running buffer (10 mM HEPES, 150 mM NaCl, 0.005% Tween-20, 0.2 mg/mL BSA, pH 7.4). Protein A surfaces were regenerated between binding cycles with 150 mM phosphoric acid. IMM20059, or an isotype control, were captured on CM5/Protein A sensor surface to generate binding and control surfaces; IMM20059 was captured at approximately 200 and 450 RU, the isotype control was captured to a density of approximately 600 RU. Binding of recombinant EPN1 to each of the three surfaces was tested, in triplicate, using a three-fold dilution series starting with 33.3 nM as the highest concentration. […] Double-subtracted data obtained from the binding measured against the 450 RU IMM20059 surface was fit to a 1:1 binding model.
For orientation: SPR reads the build-up and loss of mass on a sensor chip optically.

The target in test [5] is T1, human EPN1 expressed by human cell lines. Briefly: flow cytometry on intact Huh7 cells, fluorophore-labelled anti-human secondary. The source says: (§2) Binding of IMM20059 to intact cells was detected with fluorophore-labelled anti-human secondary Abs.
(§3) Full-length IgG1 antibody, containing the PR045-2H11 Ab VH and VL domains, was expressed recombinantly by transient transfection into mammalian cell lines, such as Chinese Hampster Ovary (CHO) and human embryonic kidney (HEK), or derivatives of those cell lines, using standard conditions. The recombinant antibody, referred to as IMM20059, was purified from conditioned media by affinity chromatography, buffer exchanged into PBS and analyzed for activity by flow cytometry. […] IMM20059 binds, to varying degrees, to the surfaces of cells included in a panel of human cancer cells, immortalized normal human cell lines, and mouse tumor lines (Table 1).

Test [6] has the same target. The test can be described thus: flow cytometry, DU145 cells (human tumor line).
Test [7] shares this target. The test can be described thus: flow cytometry, OE19 cells (human tumor line).
Test [8] addresses T2, recombinant EPN1 (Origene, cat …). The test can be described thus: SPR, IMM20059 captured at about 50 RU on C1/Protein A, EPN1 in solution, 25° C. As to the method:
Binding of EPN1 to IMM20059 was evaluated when antibody was captured, in standard running buffer, onto the surface of a C1/Protein A sensor chip at a density of approximately 50 RU. The combination of the carboxymethylated, matrix-free surface of the C1 chip and the low density of IMM20059 is predicted to limit avid binding.

The target in test [9] is T1, human EPN1 expressed by human cell lines. The test can be described thus: flow cytometry, HCT116 cells (human tumor line).
For test [10] the target is unchanged. The test can be described thus: flow cytometry, T47D cells (human tumor line). (In general: A flow cytometer gives signals particle by particle.)
For test [11] the target is unchanged. The test can be described thus: flow cytometry on intact Huh7 cells.
Description: as §2, §3

Test [12] shares this target. Briefly: flow cytometry, OVCAR3 cells (human tumor line).
For test [13] the target is unchanged. The test can be described thus: flow cytometry, SCC15 cells (human tumor line).
Test [14] shares this target. The test can be described thus: flow cytometry, FADU cells (human tumor line).
Test [15] has as its target T2, recombinant EPN1 (Origene, cat …). The test can be described thus: SPR, IMM20059 captured at 450 RU on CM5/Protein A, EPN1 in solution, 1:1 model, 25° C., average of three tests. As to the method: as §1
Test [16] concerns the target T1, human EPN1 expressed by human cell lines. Briefly: flow cytometry, H460 cells (human tumor line).

B1: IMM20059 (antibody, human IgG1, kappa, V domains shown)
VH: EVQLVESGGGLVQPGGSLRLSCAASGFTFSIHSLNWVRQAPGKGLEWVSYISSNSTTIYYADSVKGRFTISRDNAKDSLYLQMNSLRDEDTAVYYCARDYYCTGGTCFFLPDLWGRGALVTVSS
VL: EIVLTQSPATLSLSPGERATLSCRASQNISNFLAWYQHKPGQAPRLLIYDASIRATGIPARFSGSGSGTDFSLTISSLEPEDFAVYFCQQRYNWLTFGGGTKVEIKR
As usually defined, the Kd is the equilibrium constant for the complex coming apart. One may read the koff as the first-order rate constant of dissociation. By kon is commonly meant a measure of how fast the partners come together. A word on the EC50: it is the concentration needed to bring the measured effect to its halfway point. A low value points to a more potent agent. As to B1, the “MFI (fold mean fluorescence index above isotype control)” value in [1] is 7 fold; in [2], 26 fold; in [3] it was 11 fold; in test [6] it was 4 fold; in test [7] it was 5 fold; in test [9] it was 5 fold. For the same molecule, the “MFI (fold mean fluorescence index above isotype control)” value in test [10] was 5 fold; in test [12] it was 16 fold; in test [13], 5 fold; in test [14], 5 fold; in [16], 30 fold. For the same molecule, the Kd in test [4] was 0.96 nM; in test [8] it was 10.1 nM; in test [15], 0.95 nM. Besides, the values for the koff in [4], in test [8] and in [15] were 0.000705 s⁻¹, 0.00303 s⁻¹ and 0.00072 s⁻¹, respectively. Besides, the kon in test [4] turned out to be 730000 M⁻¹ s⁻¹; in test [8], 299000 M⁻¹ s⁻¹; in test [15], 760000 M⁻¹ s⁻¹. Besides, the EC50 in test [5] was found to be 1.33 µg/mL; in [11] it was 1.3 µg/mL.
